Test results taken from BindingDB's records for doi:10.1021/jm950498t (Virginia Commonwealth University, 1996).

Assay: Binding affinity towards 5-hydroxytryptamine 1D receptor was determined in calf striatum homogenate

COc1ccc2[nH]cc(CCN(C)C)c2c1 [3-(2-DIMETHYLAMINOETHYL)-5-METHOXYINDOLE]
Ki: 20 nM
